Measurements: article PMC3190643 (2011)

By UniProt entry, the sequences of proteins in these tests, tags left out. Residues count along the entry.
UniProt P14780, 107-444 limits assumed: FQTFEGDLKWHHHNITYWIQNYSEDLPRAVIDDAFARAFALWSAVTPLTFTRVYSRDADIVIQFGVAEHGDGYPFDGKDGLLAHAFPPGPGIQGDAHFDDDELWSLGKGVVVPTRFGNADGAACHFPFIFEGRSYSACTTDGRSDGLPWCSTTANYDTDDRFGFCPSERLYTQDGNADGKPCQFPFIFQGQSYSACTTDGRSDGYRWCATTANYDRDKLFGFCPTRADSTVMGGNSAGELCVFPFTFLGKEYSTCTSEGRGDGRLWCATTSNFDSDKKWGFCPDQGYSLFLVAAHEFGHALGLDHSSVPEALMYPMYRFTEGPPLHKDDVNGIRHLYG

What was measured:
[1] = molecular target: T1, Human recombinant active MMP-2 (Homo sapiens, UniProt P08253); conditions: read-out: Ki, MMP-2; koff/kon
T1 sequence (P08253 110-660): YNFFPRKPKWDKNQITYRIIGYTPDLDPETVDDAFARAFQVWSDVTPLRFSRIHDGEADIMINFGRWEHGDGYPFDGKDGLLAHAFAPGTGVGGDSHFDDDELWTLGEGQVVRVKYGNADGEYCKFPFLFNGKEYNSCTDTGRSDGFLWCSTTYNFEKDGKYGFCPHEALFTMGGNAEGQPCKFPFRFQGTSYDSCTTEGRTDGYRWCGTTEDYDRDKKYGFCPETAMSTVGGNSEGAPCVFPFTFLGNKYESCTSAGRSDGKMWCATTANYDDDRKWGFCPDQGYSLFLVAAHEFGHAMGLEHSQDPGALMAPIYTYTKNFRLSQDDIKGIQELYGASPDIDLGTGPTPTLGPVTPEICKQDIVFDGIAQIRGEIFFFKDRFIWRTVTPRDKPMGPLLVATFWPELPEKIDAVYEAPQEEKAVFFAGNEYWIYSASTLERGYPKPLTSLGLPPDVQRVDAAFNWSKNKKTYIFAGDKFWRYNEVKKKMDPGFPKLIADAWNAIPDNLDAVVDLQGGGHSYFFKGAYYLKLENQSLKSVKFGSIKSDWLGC

[2] = molecular target: catalytic domain of human recombinant MMP-9 (Homo sapiens, UniProt P14780); conditions: read-out: Ki, MMP-9 catalytic domain; koff/kon
[3] = molecular target: catalytic domain of MMP-14 (Homo sapiens, UniProt P50281); conditions: read-out: Ki, MMP-14 catalytic domain
[4] = molecular target: T2, Human recombinant active MMP-7 (Homo sapiens, UniProt P09237); conditions: read-out: Ki, MMP-7; linear competitive
T2 sequence (P09237 95-267): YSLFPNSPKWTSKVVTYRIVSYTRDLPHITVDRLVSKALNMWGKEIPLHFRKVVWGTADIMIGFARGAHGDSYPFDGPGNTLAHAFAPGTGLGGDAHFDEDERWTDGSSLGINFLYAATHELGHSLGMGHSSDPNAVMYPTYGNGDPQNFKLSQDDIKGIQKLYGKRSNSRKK

| Structure (SMILES) | Ki [1] [µM] | Ki [2] [µM] | Ki [3] [µM] | Ki [4] [µM] |
| --- | --- | --- | --- | --- |
| N=C(N)NCCC[C@H](NC(=O)[C@@H](N)CCCNC(=N)N)C(=O)Nc1ccc(Oc2ccc(S(=O)(=O)CC3CS3)cc2)cc1 (stereo partly shown) [Compound 5e] | 0.42 ± 0.15 | 18.7 ± 5.6 | – | – |
| N=C(N)NCCC[C@H](N)C(=O)Nc1ccc(Oc2ccc(S(=O)(=O)CC3CS3)cc2)cc1 (stereo partly shown) [Compound 5d] | – | – | 28.9 ± 2.3 | 160 ± 14 |
